Test results as given in patent publication US20040215284A1, “Treatment of neuromuscular dysfunction of the lower urinary tract with selective mGlu5 antagonists” (Recordati S.A., priority 2003, published 2004).
pKd, pKi: −log10 of the molar value. Like-named read-outs stand apart in the source and are kept apart here. Blank lines part the entries; values can stand above or below the compound they belong to.

The chains behind the UniProt entries cited, without tags or fusion partners. Residues count along the entry.
UniProt P31424, 21-1203: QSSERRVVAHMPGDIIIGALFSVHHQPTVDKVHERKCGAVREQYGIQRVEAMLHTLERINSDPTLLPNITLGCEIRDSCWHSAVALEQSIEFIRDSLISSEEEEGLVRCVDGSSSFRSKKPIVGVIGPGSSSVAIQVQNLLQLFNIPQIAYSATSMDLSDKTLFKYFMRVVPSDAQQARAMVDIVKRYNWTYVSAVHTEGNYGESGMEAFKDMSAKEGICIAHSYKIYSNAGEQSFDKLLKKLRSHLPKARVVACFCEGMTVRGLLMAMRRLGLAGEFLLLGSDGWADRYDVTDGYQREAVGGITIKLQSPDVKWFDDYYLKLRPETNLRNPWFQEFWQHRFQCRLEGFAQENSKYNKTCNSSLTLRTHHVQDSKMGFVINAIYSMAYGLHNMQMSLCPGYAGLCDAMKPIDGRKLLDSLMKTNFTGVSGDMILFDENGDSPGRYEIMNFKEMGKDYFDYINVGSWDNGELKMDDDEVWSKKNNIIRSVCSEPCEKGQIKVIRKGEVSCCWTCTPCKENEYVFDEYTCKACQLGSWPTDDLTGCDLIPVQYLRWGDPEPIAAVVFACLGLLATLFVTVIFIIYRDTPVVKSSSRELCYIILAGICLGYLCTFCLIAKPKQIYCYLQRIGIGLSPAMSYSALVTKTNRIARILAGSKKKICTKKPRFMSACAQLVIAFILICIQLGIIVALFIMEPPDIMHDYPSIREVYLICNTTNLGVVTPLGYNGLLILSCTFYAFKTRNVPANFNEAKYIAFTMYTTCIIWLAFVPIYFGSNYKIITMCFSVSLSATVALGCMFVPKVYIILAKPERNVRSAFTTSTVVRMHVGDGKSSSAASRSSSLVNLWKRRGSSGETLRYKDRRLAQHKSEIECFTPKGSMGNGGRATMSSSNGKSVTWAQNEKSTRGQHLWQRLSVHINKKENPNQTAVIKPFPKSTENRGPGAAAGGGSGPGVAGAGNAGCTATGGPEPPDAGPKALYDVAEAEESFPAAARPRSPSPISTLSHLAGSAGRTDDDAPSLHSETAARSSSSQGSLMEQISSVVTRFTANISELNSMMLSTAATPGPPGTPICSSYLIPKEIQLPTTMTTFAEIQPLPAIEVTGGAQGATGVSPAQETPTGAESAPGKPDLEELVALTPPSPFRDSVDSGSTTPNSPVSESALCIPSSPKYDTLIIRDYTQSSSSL

Assays:
mGlu5 [1] = molecular target: T1, mGlu5 (Rattus norvegicus, UniProt P31424); experiment: biochemical
mGlu5 [2] = molecular target: T1, mGlu5; details: read-out: mGlu5 Ki; rat forebrain, [3H]MPEP

pKi (mGlu5 [1]): 7.40
SMILES: Cc1nc(C#Cc2cccnc2)cs1 [MTEP, 3-(2-methylthiazol-4-yl)ethynylpyridine]

SMILES: Cc1cccc(C#Cc2ccccc2)n1 [[^3H]MPEP, reference compound]
pKd (mGlu5 [1]): 7.98

SMILES: Cc1cccc(C#Cc2ccccc2)n1 [MPEP, 2-methyl-6-(phenylethynyl)pyridine]
pKi (mGlu5 [2]): 7.82
